Type in all cases: cell-based
In experiment [1] the target is T1, B-cell lymphoma 6 protein (Homo sapiens, UniProt P41182). Briefly: Induction of BCL6 degradation in human SU-DHL-4 cells at 5 uM incubated for 90 mins by electrophoresis analysis.
In experiment [2] the target is T1, B-cell lymphoma 6 protein. Briefly: Induction of BCL6 degradation in human SU-DHL-4 cells at 5 uM incubated for 5 mins by electrophoresis analysis.
For experiment [3], the target named is T1, B-cell lymphoma 6 protein. As to the kind of experiment: Induction of BCL6 degradation in human SU-DHL-4 cells at 5 uM incubated for 2 hrs by electrophoresis analysis.

`CNC(=O)COc1cc2cc(Nc3nc(N4C[C@H](C)C[C@H](C)C4)ncc3Cl)ccc2n(C)c1=O`: the Activity in experiment [1] was found to be 80%; in experiment [2] it was 50%; in experiment [3], 90%.

Values taken from ChEMBL document CHEMBL5150055, “B-cell Lymphoma 6 Inhibitors: Current Advances and Prospects of Drug Development for Diffuse Large B-cell Lymphomas” (J Med Chem, 2022).
